Experimental findings from ChEMBL document CHEMBL1147725, “Identification and biological characterization of 6-aryl-7-isopropylquinazolinones as novel TRPV1 antagonists that are effective in models of chronic pain” (J Med Chem, 2006) are described below.

Sequences of proteins named here, by UniProt entry; tags and fusion partners are left off.
UniProt Q8NER1, whole entry: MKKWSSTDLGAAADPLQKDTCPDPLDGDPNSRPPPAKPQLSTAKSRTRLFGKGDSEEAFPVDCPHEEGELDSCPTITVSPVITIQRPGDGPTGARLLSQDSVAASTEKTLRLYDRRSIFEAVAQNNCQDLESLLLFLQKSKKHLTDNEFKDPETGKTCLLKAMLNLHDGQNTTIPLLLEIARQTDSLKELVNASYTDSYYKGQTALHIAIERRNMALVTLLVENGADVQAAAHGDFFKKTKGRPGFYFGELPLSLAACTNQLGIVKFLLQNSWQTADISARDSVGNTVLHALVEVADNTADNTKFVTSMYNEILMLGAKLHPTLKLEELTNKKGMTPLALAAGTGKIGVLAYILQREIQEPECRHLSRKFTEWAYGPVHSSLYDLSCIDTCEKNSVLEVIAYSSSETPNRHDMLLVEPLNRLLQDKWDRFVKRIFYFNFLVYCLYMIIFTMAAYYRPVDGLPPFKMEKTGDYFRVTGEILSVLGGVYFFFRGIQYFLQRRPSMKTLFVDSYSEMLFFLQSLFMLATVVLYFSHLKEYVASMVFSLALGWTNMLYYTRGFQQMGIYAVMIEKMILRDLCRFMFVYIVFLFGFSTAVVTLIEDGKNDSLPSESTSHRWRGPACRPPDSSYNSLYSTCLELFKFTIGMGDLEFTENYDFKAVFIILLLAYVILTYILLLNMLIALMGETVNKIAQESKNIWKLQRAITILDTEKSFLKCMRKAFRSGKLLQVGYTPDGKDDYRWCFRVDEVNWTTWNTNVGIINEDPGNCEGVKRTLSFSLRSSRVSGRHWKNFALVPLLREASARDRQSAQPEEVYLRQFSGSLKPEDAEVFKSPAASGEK

The target of this experiment is Transient receptor potential cation channel subfamily V member 1 (Homo sapiens, UniProt Q8NER1). The experiment can be described thus: Inhibition of calcium influx evoked by capsaicin in human TRPV1 expressing cells by fluorescence assay. Type of experiment: functional.

Molecules are shown by their SMILES.

Broadly, the IC50 is the point on the concentration scale where inhibition reaches its midpoint. On to `Cc1nc(O)c2cc(-c3ccc(Cl)c(O)c3)c(C(C)C)cc2n1`, for which the IC50 amounted to 1340 nM.
